The structures appear in SMILES notation. pEC50: −log10 of the molar value. Where a name gives a salt, the structure may show the parent alone.

Protein sequences, listed by entry. Tags and fused reporters are not part of them. Residues count along the entry.
UniProt O75460, 468-977 limits assumed: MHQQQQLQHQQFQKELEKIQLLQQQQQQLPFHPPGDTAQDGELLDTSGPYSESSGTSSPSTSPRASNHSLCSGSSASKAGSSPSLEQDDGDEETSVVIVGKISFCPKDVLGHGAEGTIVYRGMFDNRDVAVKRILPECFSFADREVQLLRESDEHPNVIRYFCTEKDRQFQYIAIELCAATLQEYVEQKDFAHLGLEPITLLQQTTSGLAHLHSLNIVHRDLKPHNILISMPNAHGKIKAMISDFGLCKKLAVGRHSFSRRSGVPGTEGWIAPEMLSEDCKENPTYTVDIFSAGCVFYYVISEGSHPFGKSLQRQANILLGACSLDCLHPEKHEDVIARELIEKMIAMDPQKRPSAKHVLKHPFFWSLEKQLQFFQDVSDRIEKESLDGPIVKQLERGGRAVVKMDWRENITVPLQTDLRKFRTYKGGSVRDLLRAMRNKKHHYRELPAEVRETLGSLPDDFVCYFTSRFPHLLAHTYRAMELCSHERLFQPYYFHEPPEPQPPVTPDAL
UniProt O75460, 19-977 limits assumed: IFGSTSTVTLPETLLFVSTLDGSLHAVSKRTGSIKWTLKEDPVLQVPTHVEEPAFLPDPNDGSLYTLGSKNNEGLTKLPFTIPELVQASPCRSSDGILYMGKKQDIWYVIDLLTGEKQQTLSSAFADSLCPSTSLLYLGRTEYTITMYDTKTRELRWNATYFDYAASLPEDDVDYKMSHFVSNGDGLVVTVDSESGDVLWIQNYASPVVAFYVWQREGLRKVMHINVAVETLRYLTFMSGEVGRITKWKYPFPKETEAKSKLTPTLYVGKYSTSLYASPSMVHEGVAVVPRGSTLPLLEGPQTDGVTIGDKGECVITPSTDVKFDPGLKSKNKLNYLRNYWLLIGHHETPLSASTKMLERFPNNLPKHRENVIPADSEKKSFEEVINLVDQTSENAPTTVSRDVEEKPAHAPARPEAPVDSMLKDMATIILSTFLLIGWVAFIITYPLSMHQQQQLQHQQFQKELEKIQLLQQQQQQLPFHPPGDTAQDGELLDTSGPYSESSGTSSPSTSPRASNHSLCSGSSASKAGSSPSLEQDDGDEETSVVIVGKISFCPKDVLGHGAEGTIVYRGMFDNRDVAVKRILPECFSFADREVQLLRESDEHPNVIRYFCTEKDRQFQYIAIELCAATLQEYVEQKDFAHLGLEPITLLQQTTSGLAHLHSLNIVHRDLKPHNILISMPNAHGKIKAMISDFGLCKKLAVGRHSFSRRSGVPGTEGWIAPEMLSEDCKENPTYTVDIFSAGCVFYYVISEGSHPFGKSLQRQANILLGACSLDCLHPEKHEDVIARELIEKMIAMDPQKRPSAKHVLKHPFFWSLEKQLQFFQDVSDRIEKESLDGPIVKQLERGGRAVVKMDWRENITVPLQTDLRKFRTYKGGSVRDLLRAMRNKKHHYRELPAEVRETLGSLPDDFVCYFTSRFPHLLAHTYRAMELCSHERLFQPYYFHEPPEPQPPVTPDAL

Here are results for 32 compounds from patent publication US10934275B2, “IRE1 small molecule inhibitors” (Cornell University, priority 2016, dated 2021).

Assay [1] concerns the target T1, IRE1α (Homo sapiens, UniProt O75460). Briefly: In vitro FRET assay (XBP1 RNA probe cleavage by IRE1α). The procedure: In vitro FRET assay was performed to evaluate the ability of select compounds to inhibit IRE1, the results of which are summarized in Table 5. To perform the in vitro FRET assay, 1× complete assay buffer (CAB; […], 50 mM sodium citrate pH 7.15, 1 mM magnesium acetate, 0.02% tween 20) was used to dilute SignalChem IRE1α protein to a final concentration of 2 nM. Selected compounds were serially diluted with DMSO in a non-binding black 384-well plate for a total of 15 ul in each well. 2 ul of the serially diluted compound or DMSO control were then added to new wells containing 98 ul of 1×CAB, for a total volume of 100 ul, 10 ul of which were then transferred to wells of a new plate. 5 ul of the diluted IRE1α was then added to each well. 5 ul of a […] XBP1 RNA probe was then added to each well. Fluorescence was then read over 30 minutes in kinetic mode (485/515 nm).
Two RNA probes were used, XBP1 wildtype (SEQ ID NO: 2) which is able to be spliced by active IRE1α or XBP1 mutant (SEQ ID NO: 3) which is unable to be spliced. Each probe contained a 5′ 6-FAM modification and a 3′ IOWA Black FQ modification.
A second FRET assay was performed to assess ATP-mediated inhibition. In this case, compounds and IRE1α were prepared and combined as discussed above, with the addition of ATP up to 1 mM final concentration. This mixture was incubated at room temperature for 60 minutes and then 5 ul of 400 nM XBP1 wildtype or mutant RNA probe was added. Plates were then read over 30 minutes in kinetic mode (485/515 nm).

Assay [2] deals with T1, IRE1α. The assay can be described thus: IRE1α Endoribonuclease Nanoluciferase Assay (XBP1 luciferase reporter, 293T cells). Particulars: read-out: Mean EC50, 293T cells transfected with XBP1 luciferase reporter plasmid, stressors +/- inhibitors. Here is the method: Compounds disclosed herein were assessed for disruption of IRE-1 signaling using a IRE1α Endoribonuclease Nanoluciferase Assay. Briefly, 2.5×10^6 293T cells were seeded in a 10 cm^2 tissue culture plate. About 24 hours later, the cells were transfected with Effectene. In a 15 mL Tube, the following was added: 2 μg XBP1 luciferase reporter plasmid (PGK-Luc2-P2A-XBP1u-Nanoluciferase-PEST); 300 μl EC buffer; and 16 μl Enhancer, followed by incubation at room temp for 5 minutes. Next, 60 μl Effectene (Qiagen 301427) was added, followed by incubation at room temperature for 10 minutes. 2.6 mL cDMEM media was added. Old media was aspirated from the cells, followed by addition of 7 mL fresh media. Full transfection mixture was added dropwise to cells. Cells were incubated for 6 hours, followed by tripsinization, centrifugation and resuspension in 11 mL media. 100 uL of cells were plated per a well in a 96 well plate. A day later, stressors of choice +/− inhibitors were added. To harvest, media was aspirated from cells completely, then 50 uL 1× passive lysis buffer (Promega: E1941) was added per well and put on shaker (300 rpm) for 30 minutes at room temperature. Cells were centrifuged, and 15 uL sample per well was added to a new, opaque white 384 well plate (Corning 3570). 15 uL OneGlo (nanoluciferase kit, Promega N1630) was added. Plates were spun down, placed on shaker (300 rpm) for 10 minutes. Plates were read on luminometer, 1000 ms integration time per well. 15 uL Stop and Glo (nanoluciferase kit) was added. Plates were spun down, placed on shaker (300 rpm) for 10 minutes. Plates were read on luminometer, 1000 ms second integration time per well. Recordings are provided below in Table 6.
Background: A reporter such as luciferase makes a cellular process visible.

The mark [3] stands for this setting: read-out: Mean EC50, SignalChem IRE1α protein 2 nM.
The mark [4] stands for this setting: read-out: Mean EC50, SignalChem IRE1α protein 2 nM, tested form: trifluoroacetate.

Usually pEC50 stands for −log10 of the EC50, conventionally taken in molar units. Regarding `CN1CCN(Cc2ccc(CC(=O)Nc3cc(-c4ccc5nc(NC6CCNCC6)ncc5c4)n(C)n3)cc2C(F)(F)F)CC1`, in assay [1] (setting [3]), the pEC50 was below 7.00.
`CN1CCN(Cc2ccc(NC(=O)Nc3cc(-c4ccc5nc(N[C@H]6CCNC6)ncc5c4)n(C)n3)cc2C(F)(F)F)CC1`: the pEC50 in assay [1] (setting [3]) is above 8.30; in assay [2], below 7.00.
In the case of `CN1CCN(Cc2ccc(NC(=O)Nc3cc(-c4ccc5nc(NC6CCNCC6)ncc5c4)n(C)n3)cc2C(F)(F)F)CC1` [2; TFA], the pEC50 in assay [1] (setting [3]) is below 7.00.
`CN1CCN(Cc2ccc(NC(=O)Nc3cc(-c4ccc5nc(N[C@H]6CCC[C@@H](N)C6)ncc5c4)n(C)n3)cc2C(F)(F)F)CC1`: the negative logarithm of the EC50 (pEC50) is above 8.30 in assay [1] (setting [3]) and below 7.00 in assay [2].
The corresponding values for `CN1CCN(Cc2cc(NC(=O)Nc3cc(-c4ccc5nc(NC6CCNCC6)ncc5c4)n(C)n3)cc(C(F)(F)F)c2)CC1` are below 7.00 and below 7.00.
`CNCCN(C)Cc1ccc(NC(=O)Nc2cc(-c3ccc4nc(NC5CCC(N)CC5)ncc4c3)n(C)n2)cc1C(F)(F)F` (centres unmarked): the figures for the pEC50 in assay [1] (setting [3]) and in assay [2] were above 8.30 and 7.30 to 8.30, respectively.
With `CN1CC2CCC1CN2Cc1ccc(NC(=O)Nc2cc(-c3ccc4nc(NC5CCNCC5)ncc4c3)n(C)n2)cc1C(F)(F)F` (centres unmarked), the pEC50 in assay [1] (setting [3]) and in assay [2] was below 7.00 throughout.
`CN(CCN)Cc1ccc(NC(=O)Nc2cc(-c3ccc4nc(N)ncc4c3)n(C)n2)cc1C(F)(F)F`: the pEC50 in assay [1] (setting [3]) and in assay [2] was below 7.00 throughout.
For `CN1CCN(Cc2ccc(NC(=O)Nc3cc(-c4ccc5nc(NCCCN)ncc5c4)n(C)n3)cc2C(F)(F)F)CC1`, the results for the pEC50 in assay [1] (setting [3]) and in assay [2] were above 8.30 and below 7.00, respectively.
The corresponding values for `CN1CCN(Cc2ccc(NC(=O)Nc3cc(-c4ccc5nc(N[C@@H]6CCCNC6)ncc5c4)n(C)n3)cc2C(F)(F)F)CC1` are above 8.30 and below 7.00.
For `CCc1cc(-c2cc(NC(=O)Nc3ccc(CN4CCN(C)CC4)c(C(F)(F)F)c3)nn2C)cc2cnc(NC3CCC(O)CC3)nc12` (centres unmarked), the pEC50 in assay [1] (setting [3]) is above 8.30.
Take `CC(c1ccc(NC(=O)Nc2cc(-c3ccc4nc(NC5CCC(N)CC5)ncc4c3)n(C)n2)cc1C(F)(F)F)N1CCN(C)CC1` (centres unmarked): the pEC50 in assay [1] (setting [3]) and in assay [2] was above 8.30 in each case.
Regarding `CNC1CCN(Cc2ccc(NC(=O)Nc3cc(-c4ccc5nc(NC6CCC(N)CC6)ncc5c4)n(C)n3)cc2C(F)(F)F)CC1` (centres unmarked), the pEC50 in assay [1] (setting [3]) is above 8.30.
As to `CN1CCN(Cc2ccc(NC(=O)Nc3cc(-c4ccc5nc(N[C@H]6CC[C@H](O)CC6)ncc5c4)n(C)n3)cc2C(F)(F)F)CC1`, the pEC50 in assay [1] (setting [3]) and in assay [2] was above 8.30 in each case.
`CN1CCN(Cc2ccc(NC(=O)Nc3cc(-c4ccc5nc(N[C@H]6CCCNC6)ncc5c4)n(C)n3)cc2C(F)(F)F)CC1`: the pEC50 in assay [1] (setting [3]) is above 8.30; in assay [2], 7.30 to 8.30.
The corresponding values for `CN1CCN(Cc2ccc(NC(=O)Nc3cc(-c4ccc5nc(N[C@@H]6CCC[C@@H](N)C6)ncc5c4)n(C)n3)cc2C(F)(F)F)CC1` are above 8.30 and below 7.00.
On to `CCc1cc(-c2cc(NC(=O)Nc3ccc(CN4CCN(C)CC4)c(C(F)(F)F)c3)nn2C)cc2cnc(N)nc12`, for which the values for the pEC50 in assay [1] (setting [3]) and in assay [2] were 7.30 to 8.30 and 7.00 to 7.30, respectively.
The corresponding values for `CC(c1ccc(NC(=O)Nc2cc(-c3ccc4nc(N[C@H]5CCCNC5)ncc4c3)n(C)n2)cc1C(F)(F)F)N1CCN(C)CC1` (some centres unmarked) are above 8.30 and above 8.30.
For `CN1CCN(Cc2ccc(NC(=O)Nc3cc(-c4ccc5nc(NC6CCC(F)(F)CC6)ncc5c4)n(C)n3)cc2C(F)(F)F)CC1`, the pEC50 in assay [1] (setting [3]) and in assay [2] was below 7.00 throughout.
As for `CN1CCN(Cc2ccc(NC(=O)Nc3cc(-c4ccc5nc(NCC6CNC6)ncc5c4)n(C)n3)cc2C(F)(F)F)CC1`, the pEC50 in assay [1] (setting [3]) was 7.30 to 8.30.
`CCc1cc(-c2cc(NC(=O)Cc3ccc(CN4CCN(C)CC4)c(C(F)(F)F)c3)nn2C)cc2cnc(NC3CCC(N)CC3)nc12` (centres unmarked): the pEC50 in assay [1] (setting [3]) was below 7.00.
Same read-out and setting: as for `CN(C)Cc1ccc(NC(=O)Nc2cc(-c3ccc4nc(NC5CCNCC5)ncc4c3)n(C)n2)cc1C(F)(F)F`, the figure is below 7.00.
Consider `Cn1nc(NC(=O)Nc2ccc(CN3CCC(N)CC3)c(C(F)(F)F)c2)cc1-c1ccc2nc(N[C@H]3CC[C@H](N)CC3)ncc2c1`, for which the pEC50 is above 8.30 in assay [1] (setting [3]) and 7.00 to 7.30 in assay [2].
On to `CN1CCN(Cc2cnc(NC(=O)Nc3cc(-c4ccc5nc(NC6CCNCC6)ncc5c4)n(C)n3)cc2C(F)(F)F)CC1`, for which, in assay [1] (setting [3]), the pEC50 was 7.00 to 7.30.
As for `CNCCN(C)Cc1ccc(NC(=O)Nc2cc(-c3ccc4nc(N)ncc4c3)n(C)n2)cc1C(F)(F)F`, the results for the pEC50 in assay [1] (setting [3]) and in assay [2] were 7.30 to 8.30 and below 7.00, respectively.
In the same order, the values of `CN1CCN(Cc2ccc(NC(=O)Nc3cc(-c4ccc5nc(N[C@H]6CC[C@@H](N)CC6)ncc5c4)n(C)n3)cc2C(F)(F)F)CC1` are above 8.30 and 7.30 to 8.30.
Regarding `CN1CCN(Cc2ccc(NC(=O)Nc3cc(-c4ccc5nc(N[C@H]6CC[C@H](N)CC6)ncc5c4)n(C)n3)cc2C(F)(F)F)CC1`, the results for the pEC50 in assay [1] (setting [4]) and in assay [2] (tested form: trifluoroacetate) were above 8.30 and 7.30 to 8.30, respectively.
As to `CN1CC2CCC(C1)N2Cc1ccc(NC(=O)Nc2cc(-c3ccc4nc(NC5CCNCC5)ncc4c3)n(C)n2)cc1C(F)(F)F`, the values for the pEC50 in assay [1] (setting [3]) and in assay [2] were 7.30 to 8.30 and below 7.00, respectively.
In the case of `CC(c1ccc(NC(=O)Nc2cc(-c3ccc4nc(NC5CCNCC5)ncc4c3)n(C)n2)cc1C(F)(F)F)N1CCN(C)CC1` (centres unmarked), the results for the pEC50 in assay [1] (setting [3]) and in assay [2] were above 8.30 and below 7.00, respectively.
Take `CN1CCN(Cc2ccc(NC(=O)Nc3cc(-c4ccc5nc(NC6CCCNC6)ncc5c4)n(C)n3)cc2C(F)(F)F)CC1` (centres unmarked): the pEC50 in assay [1] (setting [4]) is above 8.30; in assay [2] (tested form: trifluoroacetate), 7.30 to 8.30.
`CN1CCN(Cc2ccc(NC(=O)Nc3cc(-c4ccc5nc(N[C@@H]6CCNC6)ncc5c4)n(C)n3)cc2C(F)(F)F)CC1`: the pEC50 in assay [1] (read-out: Mean EC50, SignalChem IRE1α protein 2 nM, tested form: formate) was above 8.30; in assay [2] (tested form: formate), below 7.00.
With `CN(C)CCN(C)Cc1ccc(NC(=O)Nc2cc(-c3ccc4nc(NC5CCNCC5)ncc4c3)n(C)n2)cc1C(F)(F)F`, the pEC50 in assay [1] (setting [3]) was 7.00 to 7.30; in assay [2], below 7.00.
